The numbers were not newly measured in paper PMC9657321, “Identification of Boronate-Containing Diarylpyrimidine Derivatives as Novel HIV-1 Non-Nucleoside Reverse Transcriptase Inhibitors” (Molecules, 2022), which cites them from elsewhere.

SMILES strings stand for the structures.

The target in this data set is recombinant wild-type HIV-1 RT enzyme (Human immunodeficiency virus type 1 group M subtype B, UniProt P03366). Conditions: read-out: IC50 WT HIV-1 RT; inhibition of biotin-dUTP incorporation by 50%; cited from earlier work.

Consider `Cc1cc(C#N)cc(C)c1Oc1nc(Nc2ccc(C#N)cc2)nc(N)c1Br` [ETR, etravirine, reference compound], for which the IC50 (commonly the point on the concentration scale where inhibition reaches its midpoint) is 0.011 µM.
